In patent US20250367263A9, “Therapeutic Regimens and Methods for Treatment of Cardiovascular Risk Factors using a GLP-1R and GCGR Agonist” (Spitfire Pharma LLC, priority 2022, published 2025):

Columns and labels:
[1] = test system: non-diabetic obese and overweight subjects; assay: Phase II 24-week placebo-controlled study (NCT05295875), interim analysis; assay type: in vivo, human
From the text: Results presented in this example correspond to a 24-week interim analysis obtained from a placebo-controlled phase II study (ClinicalTrials.gov Identifier: NCT05295875) evaluating pemvidutide (ALT-801) in obese and overweight subjects. Key eligibility criteria were: (1) Men and women, ages 18-75 years; (2) at least one unsuccessful weight loss attempt per Investigator judgement; (3) Body Mass Index (BMI)≥30 kg/m^2 or BMI≥27 kg/m^2 with at least one obesity-related comorbidity (history of cardiovascular disease, hypertension, dyslipidemia, pre-diabetes or obstructive sleep apnea) and (4) non-diabetes (HbAlc≤6.5% and fasting glucose≤125 mg/dL). Eligible subjects were randomized 1:1:1:1 to one of the following treatment arms: Group 1 (39 subjects): pemvidutide 1.2 mg SC once weekly for 24 weeks; Group 2 (40 subjects): pemvidutide 1.8 mg administered subcutaneously once weekly for 24 weeks; Group 3 (40 subjects): pemvidutide 0.6 mg administered subcutaneously for 1 week, 1.2 mg administered subcutaneously for 1 week, 1.8 mg administered subcutaneously once weekly for 2 weeks, followed by 2.4 mg administered subcutaneously once weekly for 20 additional weeks (in sequence) and Group 4 (41 subjects): Placebo administered subcutaneously once weekly for 24 weeks. The randomization of subjects was stratified based on sex and baseline body mass index (BMI<35 kg/m^2 vs. ≥35 kg/m^2). A minimum of 25% of randomized subjects were male. All subjects received counselling on a reduced-calorie diet of 1200-1500 calories for individuals <250 lbs (113.6 kg) and 1500-1800 calories for individuals ≥250 lbs (113.6 kg) and a gradual increase in physical activity (targeting 150 min of physical activity per week) by a qualified healthcare professional at screening and at subsequent visits during the treatment period. Subjects were instructed to record their food intake and physical activity daily, and compliance with lifestyle interventions will be assessed by the investigator on a regular basis. A subgroup of subjects was subjected to MRI-PDFF to evaluate the hepatic fat fraction in as well as composition to measure total body adipose tissue (AT) and adipose tissue-free mass (ATFM).

[2] = test system: ABCG8 gene expression in liver; assay: Liver gene expression by RT-PCR in diet-induced obese hamsters: ABCG8; assay type: in vivo, male Golden Syrian hamsters; conditions: 10 nmol/kg SC daily for 21 days, as opposed to semaglutide and vehicle
Method: The study was conducted in male Golden Syrian hamsters placed on a free choice diet (free choice between a chow diet with normal tap water or a high fat/cholesterol diet (Safe Diets, 40.8% fat, 14.8% protein, 44.4% carbohydrates and 0.5% cholesterol, 4444.2 kcal/kg diet) with 10% fructose enriched tap water (0.4 kcal/L) provided ad libitum for a minimum of 20 weeks prior to the study start and until the end of the experiment. After randomization based on body weight, hamsters were assigned to three groups of 5 animals receiving vehicle, pemvidutide (10 nmol/kg) or semaglutide (10 nmol/kg) administered subcutaneously daily for 21 days. After 21 days, hamsters were sacrificed, and livers were collected. Total RNA was extracted from frozen liver tissue before measuring gene expression by RT-PCR across a range of markers including CYP7A, ABCA1, ABCG1, ABCG5, ABCG8, SREBP1c, SRB1 and LDL-R.

[3] = test system: diet-induced obese hamsters; assay: Macrophage-to-feces reverse cholesterol transport study in diet-induced obese hamsters; assay type: in vivo, male Golden Syrian hamsters
Method: The study was conducted in male Golden Syrian hamsters placed on a free choice diet (free choice between a chow diet with normal tap water or a high fat/cholesterol diet (Safe Diets, 40.8% fat, 14.8% protein, 44.4% carbohydrates and 0.5% cholesterol, 4444.2 kcal/kg diet) with 10% fructose enriched tap water (0.4 kcal/L) provided ad libitum for a minimum of 20 weeks prior to the study start and until the end of the experiment. After randomization based on body weight and plasma cholesterol levels, hamsters were assigned to two groups of ten (10) animals receiving vehicle or pemvidutide (10 nmol/kg) administered subcutaneously daily for 35 days and during a 72-hour macrophage-to-feces reverse cholesterol transport (RCT) experiment. Body weight was measured three (3) times per week. On day 35, hamsters were six (6)-hour fasted and blood (150 μL/heparin) was collected by retro-orbital bleeding under isoflurane anesthesia to isolate plasma and measure fasting plasma triglycerides, total cholesterol, LDL-cholesterol and HDL-cholesterol levels. On day 36, Hamsters were injected intraperitoneally with oxidized LDL-loaded/[3H]-cholesterol labeled J774 macrophages to perform a 72-hour macrophage-to-feces RCT experiment, as previously described in Castro-Perez et al (Castro-Perez, et al.. Anacetrapib promotes reverse cholesterol transport and bulk cholesterol excretion in Syrian golden hamsters. J Lipid Res. 2011; 52: 1965-73). Blood was collected on heparin tubes, under slight isoflurane anesthesia 24, 48 and 72 hours after injection of the labeled J774 cells to measure radioactivity in plasma. Feces were continuously collected during the 72-hours experiment then weighed prior to measuring fecal [3H]-cholesterol and [3H]-bile acids after chemical extraction from feces homogenate. After 72 hours, hamsters were sacrificed, and livers were collected to measure hepatic lipid after chemical extraction from liver sample homogenate.
Following injection of the [3H]-cholesterol labeled J774 macrophages, [3H]-cholesterol and/or [3H]-bile acid (resulting from the enzymatic conversion of [3H]-cholesterol in the liver) were measured in plasma, liver and feces samples at 72 hours, and expressed as the percentage of [3H]-cholesterol injected dose.

[4] = week 24, all doses (1.2, 1.8, 2.4 mg per week)
[5] = 10 nmol/kg SC daily for 35 days, vs vehicle

## CC[C@H](C)[C@H](NC(=O)[C@H](Cc1ccccc1)NC(=O)[C@H](CCC(=O)O)NC(=O)[C@@H]1CCCCNC(=O)CC[C@H](NC(=O)[C@H](CC(=O)O)NC(=O)[C@H](CC(C)C)NC(=O)[C@H](Cc2ccc(O)cc2)NC(=O)[C@H](CCCCN)NC(=O)[C@H](CO)NC(=O)[C@H](Cc2ccc(O)cc2)NC(=O)[C@H](CC(=O)O)NC(=O)[C@H](CO)NC(=O)[C@@H](NC(=O)[C@H](Cc2ccccc2)NC(=O)[C@@H](NC(=O)CNC(=O)[C@H](CCC(N)=O)NC(=O)C(C)(C)NC(=O)[C@@H](N)Cc2c[nH]cn2)[C@@H](C)O)[C@@H](C)O)C(=O)N[C@@H](CCCCNC(=O)[C@H]2O[C@@H](OCCCCCCCCCCCCCCCCCC(=O)O)[C@H](O)[C@@H](O)[C@@H]2O)C(=O)N[C@@H](C)C(=O)N[C@@H](C)C(=O)N1)C(=O)N[C@@H](CCC(N)=O)C(=O)N[C@@H](Cc1c[nH]c2ccccc12)C(=O)N[C@@H](CC(C)C)C(=O)N[C@@H](CC(C)C)C(=O)N[C@@H](CCC(N)=O)C(=O)N[C@H](C(N)=O)[C@@H](C)O [pemvidutide]
[1]; 24-week treatment at 1.2 mg, 1.8 mg and 2.4 mg
  heart rate: does not induce a significant change
[1]; 24-week treatment, 1.2, 1.8, 2.4 mg, as opposed to placebo
  systolic and diastolic blood pressures: improves
[1]; [4]
  serum lipids as compared to baseline: improvements
  waist circumference: significant reduction
[2]
  ABCG8 gene expression in liver, fold change compared to vehicle: significant increase
[3]; [5]
  liver fatty acids: lowering
  liver triglyceride: lowering
[3]; 10 nmol/kg SC daily for 35 days, vs vehicle, p<0.05
  liver cholesterol: lowering
[3]; 10 nmol/kg SC daily, day 35, vs vehicle
  plasma cholesterol (lower than vehicle): not considered statistically significant
[3]; 10 nmol/kg SC daily, day 35, vs vehicle, p<0.0001
  percentage change in body weight from baseline: significant impact
[3]; 10 nmol/kg SC daily, day 35, vs vehicle, p<0.0005
  plasma triglycerides: lowering
[3]; 10 nmol/kg SC daily, day 35, vs vehicle, p<0.005
  plasma HDL-c: lowering
[3]; 10 nmol/kg SC daily, day 35, vs vehicle, p<0.05
  plasma LDL-c: lowering
[3]; 10 nmol/kg SC daily, vs vehicle, p<0.005
  liver weight: reduction
[3]; 72 hours after labeled J774 macrophages, vs vehicle
  [3H]-bile acid in the feces, % of injected dose per gram of feces or total feces weight: trend toward an increase
[3]; 72 hours after labeled J774 macrophages, vs vehicle, p<0.05
  [3H]-cholesterol in the feces, % of injected dose per gram of feces or total feces weight: significant increase
[3]; after injection of labeled J774 macrophages, vs vehicle
  [3H]-cholesterol in plasma: lowering
